This is an account of results in ChEMBL document CHEMBL1123259, “Probes for narcotic receptor mediated phenomena. 13. Potential irreversible narcotic antagonist-based ligands derived from 6,14-endo-ethenotetrahydronororipavine with 7-(methoxyfumaroyl)amino, (bromoacetyl)amino, or isothiocyanate electrophiles: chemistry, biochemistry, and pharmacology” (1986).

The chains behind the UniProt entries cited, without tags or fusion partners.
UniProt P33533, whole entry: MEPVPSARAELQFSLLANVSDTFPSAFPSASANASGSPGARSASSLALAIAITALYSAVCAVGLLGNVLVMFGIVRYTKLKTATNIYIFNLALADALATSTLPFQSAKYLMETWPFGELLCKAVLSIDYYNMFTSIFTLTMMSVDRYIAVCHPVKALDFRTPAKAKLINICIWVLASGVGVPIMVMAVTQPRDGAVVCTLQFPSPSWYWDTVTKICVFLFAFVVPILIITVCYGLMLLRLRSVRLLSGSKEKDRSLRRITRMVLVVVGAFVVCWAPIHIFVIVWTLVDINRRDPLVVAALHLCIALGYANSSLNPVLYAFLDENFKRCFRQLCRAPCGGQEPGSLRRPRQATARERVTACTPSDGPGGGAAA
UniProt P34975, whole entry: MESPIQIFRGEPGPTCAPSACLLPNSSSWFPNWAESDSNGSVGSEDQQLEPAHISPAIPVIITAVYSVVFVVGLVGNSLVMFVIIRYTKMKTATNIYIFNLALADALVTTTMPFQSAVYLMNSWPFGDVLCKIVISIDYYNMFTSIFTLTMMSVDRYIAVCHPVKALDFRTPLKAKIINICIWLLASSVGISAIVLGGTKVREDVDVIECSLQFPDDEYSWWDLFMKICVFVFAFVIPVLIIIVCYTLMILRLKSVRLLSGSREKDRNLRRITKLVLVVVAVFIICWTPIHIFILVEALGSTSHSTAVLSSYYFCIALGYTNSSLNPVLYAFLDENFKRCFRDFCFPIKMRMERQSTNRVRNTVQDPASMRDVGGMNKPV
UniProt P33535, whole entry: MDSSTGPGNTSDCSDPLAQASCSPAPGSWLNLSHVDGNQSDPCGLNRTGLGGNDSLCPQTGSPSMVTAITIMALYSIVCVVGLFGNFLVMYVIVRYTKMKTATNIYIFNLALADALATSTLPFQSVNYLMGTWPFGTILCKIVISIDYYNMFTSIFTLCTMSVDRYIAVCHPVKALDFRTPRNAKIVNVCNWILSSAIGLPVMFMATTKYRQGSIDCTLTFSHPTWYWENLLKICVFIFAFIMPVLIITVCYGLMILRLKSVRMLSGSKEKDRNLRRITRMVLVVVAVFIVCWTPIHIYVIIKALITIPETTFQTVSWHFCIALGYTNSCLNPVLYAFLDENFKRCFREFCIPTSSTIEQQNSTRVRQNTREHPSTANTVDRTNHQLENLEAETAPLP

A word on the EC50: it is the midpoint of the concentration-response curve. Low readings indicate a more potent agent, high ones a less potent agent. By ED50 is commonly meant the dose that gives a 50% effect, or the effect in half of the subjects. Read a low ED50 as greater potency.

One experiment deals with Opioid receptor (Rattus norvegicus, UniProt P33533+P34975+P33535). Put plainly: Displacement of [3H]dalamid ([D-Ala2,Met5] enkephalinamide) from opioid receptors of rat brain membrane. (In general: In a radioligand displacement assay an active substance lowers the binding of a labelled ligand.)
In a further experiment the test system is Mus musculus. As to the kind of experiment: In vivo antagonist/agonist nature after subcutaneous administration to mice using tail flick (TF) antagonist assay vs. morphine.

`CO[C@]12C=C[C@@]3(C[C@@H]1N)[C@H]1Cc4ccc(O)c5c4[C@@]3(CCN1CC1CC1)[C@H]2O5` gave an EC50 on Opioid receptor of 6 nM.

As for `CCCN1CC[C@]23c4c5ccc(O)c4O[C@H]2C2(OC)C=C[C@@]3(C[C@@H]2N)[C@H]1C5.O=C(O)C(=O)O`, on Opioid receptor, a half-maximal effect (EC50) was put at 100 nM.

Molecule `COC(=O)/C=C/C(=O)N[C@H]1C[C@@]23C=CC1(OC)[C@@H]1Oc4c(O)ccc5c4[C@@]12CCN(CC1CC1)[C@@H]3C5.O=C(O)C(=O)O` came in with a half-maximal effective concentration (EC50) at Opioid receptor of 6 nM.

The molecule `CCCN1CC[C@]23c4c5ccc(O)c4O[C@H]2C2(OC)C=C[C@@]3(C[C@@H]2N=S)[C@H]1C5.O=C(O)C(=O)O` gave an ED50 with Mus musculus of 0.7 mg/kg. This molecule displayed an EC50 at Opioid receptor of 130 nM.

Consider `CCCN1CC[C@]23c4c5ccc(O)c4O[C@H]2[C@@]2(OC)C=C[C@@]3(C[C@@H]2NC(=O)CBr)[C@H]1C5`, for which the ED50 in the experiment with Mus musculus is 0.6 mg/kg. This molecule had an EC50 on Opioid receptor of 130 nM.

With `COC12C=C[C@@]3(C[C@@H]1N=S)[C@H]1Cc4ccc(O)c5c4[C@@]3(CCN1CC1CC1)[C@H]2O5.O=C(O)C(=O)O`, the EC50 at Opioid receptor came to 7 nM.

On to `CO[C@]12C=C[C@@]3(C[C@@H]1NC(=O)CBr)[C@H]1Cc4ccc(O)c5c4[C@@]3(CCN1CC1CC1)[C@H]2O5`, for which, at Opioid receptor, the concentration giving a half-maximal response (EC50) came to 7 nM.

Take `CCCN1CC[C@]23c4c5ccc(O)c4O[C@H]2[C@@]2(OC)C=C[C@@]3(C[C@@H]2NC(=O)/C=C/C(=O)OC)[C@H]1C5`: in the experiment with Mus musculus, the ED50 amounted to 1.8 mg/kg. At Opioid receptor, this molecule registered an EC50 of 180 nM.
